One molecule from PMC9091350, “Sodium Tanshinone IIA Sulfonate as a Potent IDO1/TDO2 Dual Inhibitor Enhances Anti-PD1 Therapy for Colorectal Cancer in Mice” (Frontiers in Pharmacology, 2022) can be followed below.

Amino acid sequences for entries named in this document (tags omitted).
UniProt P14902, whole entry: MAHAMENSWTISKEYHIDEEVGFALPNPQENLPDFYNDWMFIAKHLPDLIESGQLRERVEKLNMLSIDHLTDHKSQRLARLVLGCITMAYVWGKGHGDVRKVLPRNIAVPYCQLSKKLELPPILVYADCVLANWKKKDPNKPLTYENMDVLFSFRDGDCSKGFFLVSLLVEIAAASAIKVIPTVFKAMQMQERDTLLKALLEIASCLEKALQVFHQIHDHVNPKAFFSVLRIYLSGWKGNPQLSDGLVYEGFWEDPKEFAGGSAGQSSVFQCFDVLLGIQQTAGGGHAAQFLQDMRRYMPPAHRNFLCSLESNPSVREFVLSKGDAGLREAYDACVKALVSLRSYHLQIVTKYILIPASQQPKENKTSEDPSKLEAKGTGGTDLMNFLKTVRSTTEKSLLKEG

The test deals with T1, indoleamine 2,3-dioxygenase 1 (IDO1) (Homo sapiens, UniProt P14902).
T1 construct: full-length, N-terminal His-AK tag (His-AK-IDO1)
Nature of the test: purified recombinant enzyme inhibitor screen (compounds at […]), kynurenine absorbance at […] nm. It is filed as biochemical.

Consider `C[C@]12CCC(=O)C=C1CC[C@@H]1[C@@H]2CC[C@]2(C)C(=O)CC[C@@H]12` [androstenedione], for which the “purified recombinant enzyme inhibitor screen (compounds at 10 μM), kynurenine ab” value was “several compounds, including mangostin and androstenedione, could inhibit the activity of IDO1 (Supplementary Figures S1A,B)”.
